From patent US20120128665A1, “PRESELECTION OF SUBJECTS FOR THERAPEUTIC TREATMENT BASED ON HYPOXIC STATUS” (SYNTA PHARMACEUTICALS CORP., priority 2010, published 2012)

By UniProt entry, the sequences of proteins in these tests, tags left out. Residues count along the entry.
UniProt P09619, 33-1106, species assumed: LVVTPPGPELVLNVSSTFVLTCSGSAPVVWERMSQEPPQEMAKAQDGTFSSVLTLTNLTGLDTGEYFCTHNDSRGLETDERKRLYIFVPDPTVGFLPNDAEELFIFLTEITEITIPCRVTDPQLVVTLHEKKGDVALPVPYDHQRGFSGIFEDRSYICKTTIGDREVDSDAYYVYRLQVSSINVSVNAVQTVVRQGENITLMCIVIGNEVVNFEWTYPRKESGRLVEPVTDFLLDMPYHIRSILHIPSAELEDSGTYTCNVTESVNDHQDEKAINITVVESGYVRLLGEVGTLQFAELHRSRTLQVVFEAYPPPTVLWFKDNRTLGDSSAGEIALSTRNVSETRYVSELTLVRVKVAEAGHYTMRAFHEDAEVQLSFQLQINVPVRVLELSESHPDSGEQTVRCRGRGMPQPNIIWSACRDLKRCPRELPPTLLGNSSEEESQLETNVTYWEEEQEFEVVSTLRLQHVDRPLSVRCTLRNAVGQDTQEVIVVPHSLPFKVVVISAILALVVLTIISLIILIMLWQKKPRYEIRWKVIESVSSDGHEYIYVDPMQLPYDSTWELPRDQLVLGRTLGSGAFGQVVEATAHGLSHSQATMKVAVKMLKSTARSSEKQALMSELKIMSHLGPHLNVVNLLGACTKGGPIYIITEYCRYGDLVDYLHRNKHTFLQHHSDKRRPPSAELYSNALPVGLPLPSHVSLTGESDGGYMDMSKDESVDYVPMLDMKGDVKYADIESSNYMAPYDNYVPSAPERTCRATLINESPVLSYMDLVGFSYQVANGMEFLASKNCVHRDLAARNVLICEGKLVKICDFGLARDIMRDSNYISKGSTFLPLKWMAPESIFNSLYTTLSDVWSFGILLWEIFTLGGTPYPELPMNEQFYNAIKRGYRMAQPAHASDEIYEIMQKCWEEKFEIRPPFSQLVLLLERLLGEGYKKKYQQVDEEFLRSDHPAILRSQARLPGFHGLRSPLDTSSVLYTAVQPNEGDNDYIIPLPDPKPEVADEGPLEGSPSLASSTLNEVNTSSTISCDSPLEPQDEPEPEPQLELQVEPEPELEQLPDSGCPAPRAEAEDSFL

Experiments:
[1] = tested on: HCT116 tumors vs 786O tumors; test: response of hypoxic vs non-hypoxic tumors; assay type: in vivo, nude mice; details: doses as in the 3rd table
Description: A tumor model in which the tumors have relatively high and low levels of LDH5, indicating high and low levels of hypoxia, using human tumor cell lines HCT116 and 786-O was established as set forth in the previous example.
As above, HCT116 and 786-O cells were cultured and implanted into nude mice using the methods in the previous example. Tumor growth was measured using calipers. Prior to treatment with the various agents, tumors were permitted to develop in vivo until they reached approximately 150 mm^3 in volume, which typically required 2-3 weeks following implantation. Animals were randomized into treatment groups so that the average tumor volumes of each group were similar at the start of dosing.
Tumor volume was monitored throughout the course of the study, until up to about 40 days from the date of tumor implantation. The exact number of days of the study depended on a number of factors including, for example, the number of days from implantation for the tumors to reach the desired volume.

[2] = target: PDGFR-β (Homo sapiens, UniProt P09619); details: cited from earlier work

| Substance | effectiveness at slowing tumor growth in tumors with high levels of hypoxia (HCT116) compared with low levels (786O) [1] | ligand-induced autophosphorylation of PDGFR-β [2] |
| --- | --- | --- |
| cetuximab: Anti-EGFR | not found to work better |  |
| Cediranib |  | inhibited |
